Results reported in PubChem BioAssay AID651768 (National Center for Advancing Translational Sciences (NCATS), 2012).
The list shows a part of the results, in another mix than the full data. Active and inactive are the calls of the source. Calls follow the shape of the dose curve; as a rule, active = well fitted inhibition curve with a large enough effect; inconclusive = small, poorly fitted or top-dose-only effect; inactive = no such curve, though single readings can be large or run the other way.

The chains behind the UniProt entries cited, without tags or fusion partners.
UniProt Q14191, whole entry, looked up: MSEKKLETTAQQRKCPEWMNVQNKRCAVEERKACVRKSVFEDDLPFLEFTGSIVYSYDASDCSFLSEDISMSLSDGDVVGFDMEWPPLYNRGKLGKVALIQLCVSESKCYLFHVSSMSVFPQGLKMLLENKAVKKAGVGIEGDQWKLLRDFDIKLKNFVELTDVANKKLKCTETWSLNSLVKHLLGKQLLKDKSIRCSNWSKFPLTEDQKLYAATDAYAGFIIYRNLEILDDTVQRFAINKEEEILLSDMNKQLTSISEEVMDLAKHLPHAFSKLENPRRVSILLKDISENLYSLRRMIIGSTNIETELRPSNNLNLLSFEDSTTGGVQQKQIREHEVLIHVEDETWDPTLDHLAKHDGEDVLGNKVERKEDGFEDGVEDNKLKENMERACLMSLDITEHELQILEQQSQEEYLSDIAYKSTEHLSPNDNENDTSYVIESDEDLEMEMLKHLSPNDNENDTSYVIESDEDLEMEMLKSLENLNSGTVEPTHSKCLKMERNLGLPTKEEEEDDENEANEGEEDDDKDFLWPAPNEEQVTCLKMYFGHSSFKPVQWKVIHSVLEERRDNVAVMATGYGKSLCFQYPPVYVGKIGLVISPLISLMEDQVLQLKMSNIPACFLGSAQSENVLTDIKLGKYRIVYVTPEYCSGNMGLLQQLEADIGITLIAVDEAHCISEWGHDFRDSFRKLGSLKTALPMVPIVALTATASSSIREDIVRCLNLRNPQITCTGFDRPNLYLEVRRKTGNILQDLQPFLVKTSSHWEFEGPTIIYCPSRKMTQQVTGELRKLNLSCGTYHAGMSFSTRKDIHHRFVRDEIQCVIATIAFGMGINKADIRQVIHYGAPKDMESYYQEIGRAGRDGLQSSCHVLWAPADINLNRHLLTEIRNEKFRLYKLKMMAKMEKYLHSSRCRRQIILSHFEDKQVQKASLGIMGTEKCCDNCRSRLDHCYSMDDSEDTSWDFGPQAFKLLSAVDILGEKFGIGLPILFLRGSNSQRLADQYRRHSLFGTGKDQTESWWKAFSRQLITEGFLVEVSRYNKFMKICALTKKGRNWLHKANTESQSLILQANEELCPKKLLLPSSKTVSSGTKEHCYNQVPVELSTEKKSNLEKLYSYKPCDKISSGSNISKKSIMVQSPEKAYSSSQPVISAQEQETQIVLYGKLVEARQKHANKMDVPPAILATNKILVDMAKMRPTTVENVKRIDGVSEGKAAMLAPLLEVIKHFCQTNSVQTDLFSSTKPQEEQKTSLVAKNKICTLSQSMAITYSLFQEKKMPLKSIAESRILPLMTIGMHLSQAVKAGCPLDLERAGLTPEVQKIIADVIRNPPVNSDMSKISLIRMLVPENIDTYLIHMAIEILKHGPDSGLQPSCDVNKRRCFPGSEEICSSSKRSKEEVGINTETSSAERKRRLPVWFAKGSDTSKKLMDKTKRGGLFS

Target: Bifunctional 3'-5' exonuclease/ATP-dependent helicase WRN (Homo sapiens) (UniProt Q14191)
Experiment: qHTS for Inhibitors of WRN Helicase; also: nearly all actives have a fitted effect of over 55% in size
Conditions: WRN helicase unwinding, fluorescent forked duplex, kinetic; series mostly up to 114 µM; activity change, negative = inhibition: at the top concentration
Source text: Inhibition of DNA repair is proposed as a strategy for combating cancer. Synthetic lethality is an approach that exploits preexisting DNA repair deficiencies in certain tumors to develop inhibitors of DNA repair pathways that compensate for the tumor-associated DNA repair deficiency. Because helicases play critical roles in the DNA damage response and in DNA repair, particularly in actively dividing and replicating cells, characterization of synthetic lethal relationships of DNA helicases may be of value in developing improved anticancer treatment strategies; moreover, small molecules that specifically target a given DNA helicase may be useful for understanding its role in cellular nucleic acid metabolism. The goal of this project is to identify small molecule, non-covalent chemical inhibitors of the Werner syndrome (WS) helicase (WRN), which plays an important role in cell proliferation, the replication stress response, and DNA repair. […] The WRN gene product that is defective in the chromosomal instability disorder has DNA helicase and exonuclease activities and interacts with a number of nuclear proteins to maintain genomic stability. We will employ an optimized high-throughput screening assay that utilizes a fluorescence intensity modulation scheme with a fluorophore and quencher positioned near one another within a duplex deoxyoligonucleotide that contains a single forked structure. After a high-throughput screen of the ~350,000-member Molecular Libraries Small Molecule Repository (MLSMR) collection, followed by data analysis and hit selection, a panel of confirmatory, as well as secondary and ternary, assays will be employed to identify high-confidence WRN inhibitors. Structure-activity relationships will be investigated for the top candidate inhibitor series through medchem expansion. These are the results of the primary screening campaign against the MLSMR. NIH Chemical Genomics Center [NCGC] NIH Molecular Libraries Probe Centers Network [MLPCN] MLPCN Grant: MH096530 Assay Submitter (PI): Robert Brosh, National Institute of Aging
Three muL of reagents (buffer in columns 3 and 4 as negative controls; WRN at 20 nM final concentration in columns 1 and 2 as positive controls; columns 5-48 as test reactions) will be dispensed into a 1536-well Greiner black plate via solenoid-valve based nanoliter dispensers. Compounds (23 nL each in columns 5-48) and control (23 nL each in column 2 as dose-response) will be transferred via a Kalypsys pintool equipped with a 1536-pin array. Plates will be incubated for 15 min at room temperature, and then 1 µL of substrate (100 nM forked duplex oligonucleotide and 2 mM ATP final concentrations) will be added to start reaction, and plate will be transferred into a ViewLux high-throughput CCD imager where reaction progress is measured in kinetic mode using standard red-fluorescence optics (excitation filter 525 nm, emission filter 598 nm).
% is scaled to controls: 0 for no effect and ±100 for the full control effect; potency is read from the fitted curve at half-maximal effect.

SMILES | activity change, negative = inhibition | Potency
CN(CCCl)Cc1cc(Cl)c(NC2=NCCN2)c(Cl)c1 | inactive: -0.887% | 
CCOP(=O)(Nc1ccc(C)cn1)OCC | inactive: -0.74% | 
O=P1(Nc2ccccn2)COc2ccccc2OC1 | inactive: -1.54% | 
CCC1=CC2Cc3nc4ccc(Cl)cc4c(N)c3C(C1)C2 (stereo not drawn) | inactive: 3.04% | 
CCOP(=O)(NC(=NC(C)c1ccccc1)NC(C)c1ccccc1)OCC (stereo not drawn) | inactive: 3.49% | 
O=P1(N(CCCl)CCCl)NCCC(C(F)(F)F)O1 (stereo not drawn) | inactive: -3.17% | 
Clc1n[nH]nc1-c1nn[nH][15n]1 | inactive: -0.839% | 
CC(C)(C)C(=O)NC(Sc1ncccn1)C(Cl)(Cl)Cl (stereo not drawn) | inactive: -3.5% | 
COc1ccccc1CNC(=O)COC(=O)C(O)(c1ccccc1)c1ccccc1 | inactive: 2.8% | 
CC1(CBr)Cn2c(nc3ccccc3c2=O)S1 (stereo not drawn) | inactive: 0.192% | 
CC(C)/C=N\N=C(\N)N[N+](=O)[O-] | inactive: 2.69% | 
CN(C(=O)Cc1ccc(Cl)c(Cl)c1)[C@@H]1CCCC[C@H]1N1CCCC1 | inactive: 6.18% | 
Cc1nn(-c2ccccc2)c2c1P(=O)(N1CCOCC1)N(C)C(c1ccccc1)=N2 (stereo not drawn) | inactive: -5.72% | 
CC1CCC(C(C)C)C(OP(=O)(Nc2ccccn2)c2ccccc2)C1 (stereo not drawn) | inactive: -10.6% | 
Cc1ccc(C(=O)OC2CN3CCC2CC3)cc1 (stereo not drawn) | inactive: 2.72% | 
CCCC1OP(=O)(Nc2ccccc2)OCC1CC (stereo not drawn) | inactive: 3.86% | 
CN(C)C1(CNC(=O)c2ccc(S(C)(=O)=O)cc2)CCCCC1 | inactive: 2.75% | 

SMILES | activity change, negative = inhibition | Potency
O=P1(Nc2ncccn2)COc2ccccc2OC1 | inactive: 15.8% | 
Cc1ccc(S(=O)(=O)N(CCCN)CCCc2c(C)nc(N)[nH]c2=O)cc1 | inactive: 11.7% [at 57.1 µM] | 
O=P1(Nc2ccc(Br)cn2)COc2ccccc2OC1 | inactive: 3.02% | 
NS(=O)(=O)c1cccc(NC(=O)COC(=O)C(O)(c2ccccc2)c2ccccc2)c1 | inactive: -2.05% | 
O=[As](O)(c1cccs1)c1cccs1 | inactive: 11% | 
Cc1ccc(OCC(=O)OC2CN3CCC2CC3)cc1 (stereo not drawn) | inactive: 0.489% | 
Nc1cccc([As](=O)(O)c2ccccc2)c1 | inactive: -6.94% | 
CCOP1(=S)c2c(C)nn(CCC#N)c2N=C(c2ccccc2F)N1C (stereo not drawn) | inactive: -6.59% | 
O=P(Nc1nccs1)(c1ccccc1)c1nc2ccccc2s1 (stereo not drawn) |  | active: 22.4 µM
O=P(Nc1nccs1)(Oc1ccccc1)Oc1ccccc1 | inactive: -0.593% | 
Nc1ccccc1[As](=O)(O)c1ccccc1 | inactive: -1.16% | 
O=C(O)COc1ccc([As](=O)(O)O)cc1[N+](=O)[O-] | inactive: 9.4% | 
NC(=O)Nc1ccc([As](=O)(O)O)cc1 | inactive: -1.21% | 
CN(C)C(=O)c1cc([N+](=O)[O-])cc2c1-c1c(cc([N+](=O)[O-])cc1[N+](=O)[O-])C2=O | inactive: -8.7% | 
O=[N+]([O-])c1ccc2c(c1)nnn2O | inactive: -5.63% | 
CN(C(=O)Cc1ccc(Cl)c(Cl)c1)[C@H]1CC[C@@]2(CCCO2)C[C@@H]1N1CCCC1 | inactive: -0.687% | 
